Measured values as given in US8618111B2, “5-alkynyl-pyrimidines” (Boehringer Ingelheim International GmbH, priority 2010, dated 2013).

By UniProt entry, the sequences of proteins in these tests, tags left out.
UniProt P42336, whole entry, species assumed: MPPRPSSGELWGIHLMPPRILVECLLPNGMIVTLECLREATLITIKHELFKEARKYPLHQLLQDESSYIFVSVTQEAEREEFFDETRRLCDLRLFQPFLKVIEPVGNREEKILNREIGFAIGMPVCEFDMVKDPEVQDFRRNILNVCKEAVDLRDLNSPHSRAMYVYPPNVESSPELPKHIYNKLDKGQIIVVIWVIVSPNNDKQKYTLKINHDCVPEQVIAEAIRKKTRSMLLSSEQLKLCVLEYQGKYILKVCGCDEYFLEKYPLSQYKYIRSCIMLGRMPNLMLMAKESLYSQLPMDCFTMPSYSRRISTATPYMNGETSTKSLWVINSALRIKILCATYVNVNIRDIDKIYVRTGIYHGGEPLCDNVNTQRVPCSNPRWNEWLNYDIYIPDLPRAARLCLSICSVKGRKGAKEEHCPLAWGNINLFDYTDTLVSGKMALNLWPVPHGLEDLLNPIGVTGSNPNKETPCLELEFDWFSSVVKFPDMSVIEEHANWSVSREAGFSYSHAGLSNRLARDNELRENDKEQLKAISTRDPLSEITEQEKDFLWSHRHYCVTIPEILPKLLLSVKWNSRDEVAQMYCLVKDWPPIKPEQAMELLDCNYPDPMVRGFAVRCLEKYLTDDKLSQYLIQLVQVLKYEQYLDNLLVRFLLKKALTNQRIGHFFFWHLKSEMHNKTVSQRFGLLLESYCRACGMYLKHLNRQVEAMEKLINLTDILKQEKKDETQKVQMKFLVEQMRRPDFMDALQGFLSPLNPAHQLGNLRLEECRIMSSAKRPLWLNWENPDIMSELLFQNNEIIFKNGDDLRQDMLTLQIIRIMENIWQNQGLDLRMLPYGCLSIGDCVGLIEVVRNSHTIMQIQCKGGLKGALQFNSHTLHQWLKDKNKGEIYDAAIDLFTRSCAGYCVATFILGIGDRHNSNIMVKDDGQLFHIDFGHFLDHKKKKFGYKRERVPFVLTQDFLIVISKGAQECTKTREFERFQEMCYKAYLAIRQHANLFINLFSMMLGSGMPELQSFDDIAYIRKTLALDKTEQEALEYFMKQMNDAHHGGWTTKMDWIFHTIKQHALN

Key:
[1] = target: mTOR (Homo sapiens (Human), UniProt P42345); assay: mTOR kinase activity assay (phosphorylation status of mTOR substrate 4E-BP1; TR-FRET); type: biochemical
[2] = target: PI3Kalpha (Homo sapiens (Human), UniProt P42336); assay: Inhibition of PI3Kalpha-induced PIP-2 phosphorylation (filter-binding assay); type: biochemical
Description: Inhibition of PI3Kalpha-Induced PIP-2 Phosphorylation
Method Type: Filter-Binding-Assay
Aliquoted in desired amounts and stored at −80° C. Final assay concentration 25 ng/well.

In the case of `CCc1ncnc(N2CCc3ncccc3C2)c1C#Cc1ccc(N)nc1` [Example H-2], the IC50 [1] is reported as 67 nM and the “IC50 PI3Ka” value [2] is reported as 333 nM.
